In publication PMC9368758, “Cellular Redox Metabolism Is Modulated by the Distinct Localization of Cyclic Nucleotide Phosphodiesterase 5A Isoforms” (International Journal of Molecular Sciences, 2022):
Several values for one entry are separate records, joined by “and”; a condition that tells them apart may be missing. Equal values may be shown once.

What was measured:
[1] = molecular target: MmPDE5A1 (Mus musculus cGMP-specific phosphodiesterase 5A, isoform A1), produced in K. lactis wild type strain CBS2359 (Mus musculus) (UniProt Q8CG03); experiment: native gel or EMSA; native PAGE, 5% non-denaturing gel, Tris/glycine pH 8.3, 4 C, 1.0 ug purified protein, Coomassie; pre-incubated at 30 C up to 3 h with or without DTT, cGMP, sildenafil or diamide
[2] = molecular target: MmPDE5A1 produced in the K. lactis ragx1 mutant (Mus musculus) (UniProt Q8CG03); experiment: as above

Row | stoichiometry N [1] | stoichiometry N [2] | Substance
1 | 4 and 2 |  | MmPDE5A1 (Mus musculus cGMP-specific phosphodiesterase 5A, isoform A1), produced in K. lactis wild type strain CBS2359 (from UniProt Q8CG03 1-865) (enzyme)
2 |  | 2 | MmPDE5A1 produced in the K. lactis ragx1 mutant (from UniProt Q8CG03 1-865) (enzyme)
